The target of one assay is T1, Histamine (H2) (Cavia porcellus, UniProt P47747).
T1 construct: Guinea pig striatal membranes; from tissue; host or cells: guinea pig striatal membranes
Briefly: Histamine (H2) Binding Assay. The note with it: reference compound; Guinea pig striatal membranes; [3H]Tiotidine.

The chains behind the UniProt entries cited, without tags or fusion partners. Residues count along the entry.
UniProt P47747, whole entry: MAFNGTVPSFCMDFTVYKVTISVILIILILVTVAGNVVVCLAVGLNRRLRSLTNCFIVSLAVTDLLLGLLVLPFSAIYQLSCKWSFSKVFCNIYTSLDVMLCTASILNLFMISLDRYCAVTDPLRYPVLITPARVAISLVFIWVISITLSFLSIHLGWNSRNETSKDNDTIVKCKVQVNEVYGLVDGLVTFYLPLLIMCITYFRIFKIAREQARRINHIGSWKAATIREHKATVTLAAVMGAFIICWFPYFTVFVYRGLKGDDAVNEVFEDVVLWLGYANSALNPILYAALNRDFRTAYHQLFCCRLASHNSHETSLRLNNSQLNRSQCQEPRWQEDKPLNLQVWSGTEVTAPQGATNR
UniProt F6Q2H9, 1-422: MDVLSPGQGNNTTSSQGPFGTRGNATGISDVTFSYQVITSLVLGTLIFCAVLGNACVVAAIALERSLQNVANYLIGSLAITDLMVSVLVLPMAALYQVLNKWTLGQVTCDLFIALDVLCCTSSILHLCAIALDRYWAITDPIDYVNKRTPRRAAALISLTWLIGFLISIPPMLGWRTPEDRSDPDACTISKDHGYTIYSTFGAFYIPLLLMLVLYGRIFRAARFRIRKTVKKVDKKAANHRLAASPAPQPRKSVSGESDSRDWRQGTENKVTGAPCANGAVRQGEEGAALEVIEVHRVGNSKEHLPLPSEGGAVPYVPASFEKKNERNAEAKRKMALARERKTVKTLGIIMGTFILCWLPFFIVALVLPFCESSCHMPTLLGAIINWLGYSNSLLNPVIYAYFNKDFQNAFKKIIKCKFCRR
UniProt P18901, whole entry: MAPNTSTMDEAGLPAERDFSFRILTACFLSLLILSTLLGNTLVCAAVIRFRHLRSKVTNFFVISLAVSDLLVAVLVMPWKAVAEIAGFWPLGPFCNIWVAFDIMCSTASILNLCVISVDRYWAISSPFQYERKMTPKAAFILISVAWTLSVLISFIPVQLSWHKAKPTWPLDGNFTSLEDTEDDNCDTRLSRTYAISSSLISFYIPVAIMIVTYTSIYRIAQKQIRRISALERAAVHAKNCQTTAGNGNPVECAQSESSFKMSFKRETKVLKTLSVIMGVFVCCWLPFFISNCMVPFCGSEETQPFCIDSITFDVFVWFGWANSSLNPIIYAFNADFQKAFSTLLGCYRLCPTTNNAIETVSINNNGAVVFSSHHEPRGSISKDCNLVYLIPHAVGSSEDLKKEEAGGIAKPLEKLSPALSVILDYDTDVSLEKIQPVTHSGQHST

A further assay addresses Serotonin (5HT1A) (Bos taurus, UniProt F6Q2H9). Briefly: Serotonin (5HT1A) Binding Assay.
Another assay concerns the target Dopamine (D1 Central) (Rattus norvegicus, UniProt P18901). Briefly: Dopamine (D1 Central) Binding Assay.

Molecules are shown by their SMILES.

On Histamine (H2), `CN/C(=N/CCSCc1nc[nH]c1C)NC#N` [Cimetidine, reference compound] yielded an inhibition constant (Ki) of 0.65 µM.

With `COc1ccc2[nH]cc(C3=CCNCC3)c2c1` [RU 24969], the Ki on Serotonin (5HT1A) was 0.01 µM. That is a double-digit nanomolar value.

The compound `O=C(CCCN1CCC2(CC1)C(=O)NCN2c1ccccc1)c1ccc(F)cc1` [Spiperone, reference compound] displayed an inhibition constant (Ki) on Dopamine (D1 Central) of 0.843 µM. This counts as sub-micromolar.

As a reminder, the Ki is a measure of affinity in units of concentration, obtained from inhibition or displacement. Low values mean a stronger hold on the target, high ones a looser hold on the target.
